Screening data from PubChem BioAssay.
Most compounds without a hit are left out; they make up all but 0.43% or so of the library.
HCMV NEC inh: inhibitors of HCMV UL50-UL53 nuclear egress complex interaction. AID 1918969. inhibition, % (concentration not given with the values). actives 0.15% (n = 190,000). HTRF UL50-UL53 interaction, normalized percent inhibition; in the data active = inhibition above about 27%, passing the limit was not always enough
GIV Gai3 FP: blocks GIV peptide binding to rat Galpha-i3. P08753. Galpha-i3/FITC-GIV peptide fluorescence polarization, 90 min; stronger effect = lower value; scaled: aluminum fluoride 0%, vehicle 100%. percent of control (FP), % (concentration not given with the values). hit rate 0.42% among 210,000. AID 1224905;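 active means replicate mean at 85% of control or lower, very high polarization wells dropped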;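 further: wells of about 15 µL received 100 nL stock; the first replicate is given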
Active calls of the source: *; / = no result.

1	COc1ccc(C)cc1NC(=O)CSc1nc2c(sc3ncccc32)c(=O)n1Cc1ccc(F)cc1
2	Cc1ccc(NC(=O)CSc2nc3c(oc4ccccc43)c(=O)n2Cc2ccc(F)cc2)c(C)c1
3	CCN(CC)CCn1c(SCC(=O)Nc2cccc(OC)c2)nc2c(sc3ccccc32)c1=O
4	COc1cccc(NC(=O)CSc2nc3c(sc4ncccc43)c(=O)n2Cc2ccc(C)cc2)c1
5	CCOC(=O)c1c(CN2CCCC2)n(-c2ccccc2)c2cc(Br)c(O)cc12
6	COC(=O)c1ccc(Oc2ncnc3scc(-c4ccccc4)c23)o1
Compound	1	2	3	4	5	6
HCMV NEC inh	54.6*	/	/	78.8*	-5.1	-10.4
GIV Gai3 FP	101.8	108.8	103.3	100.5	99.2	100.6

7	CCOc1cc(/C=C2\SC(=S)N(CC)C2=O)cc(Cl)c1O
8	CCOc1cccc(/C=C2\SC(=S)N(CC)C2=O)c1O
9	Fc1ccc(-c2ccc(SCc3nc(-c4ccc(C(F)(F)F)cc4)no3)nn2)cc1
10	CC1=NN(c2ccccc2)C(=O)/C1=C\c1ccc(N(C)C)cc1
11	CN1C(=O)C(=Cc2ccc(Oc3ccc([N+](=O)[O-])cc3[N+](=O)[O-])cc2)C(=O)N(C)C1=O
12	CC1=NN(c2ccccc2)C(=O)/C1=C\c1ccc(Oc2ccc([N+](=O)[O-])cc2[N+](=O)[O-])cc1
Compound	7	8	9	10	11	12
HCMV NEC inh	-19.0	-20.7	-13.7	-21.3	-63.3	53.8*
GIV Gai3 FP	-14.8*	/	106.1	105.0	93.0	97.0

13	COc1ccc(/C=C2\C(=O)N(c3ccccc3)N=C2C)cc1
14	Cc1oc2nc[nH]c(=O)c2c1C(=O)Nc1cccc(C(F)(F)F)c1
15	COc1cccc(Nc2nnc(-c3cc4ccc(O)cc4oc3=O)s2)c1
16	O=C(Oc1ccc2cc(-c3ccc(F)cc3)c(=O)oc2c1)c1ccco1
17	O=c1oc2cc(O)ccc2cc1-c1nc2ccccc2s1
18	O=c1oc2cc(O)ccc2cc1-c1nnc(Nc2ccccc2F)s1
Compound	13	14	15	16	17	18
HCMV NEC inh	43.3*	-24.3	/	-16.5	-60.4	-39.0
GIV Gai3 FP	109.3	/	-69.2*	108.2	-78.8*	230.5

From compound 12 as far as 15, as listed above:
12	CC1=NN(c2ccccc2)C(=O)/C1=C\c1ccc(Oc2ccc([N+](=O)[O-])cc2[N+](=O)[O-])cc1
13	COc1ccc(/C=C2\C(=O)N(c3ccccc3)N=C2C)cc1
14	Cc1oc2nc[nH]c(=O)c2c1C(=O)Nc1cccc(C(F)(F)F)c1
15	COc1cccc(Nc2nnc(-c3cc4ccc(O)cc4oc3=O)s2)c1
Compound	12	13	14	15
HCMV NEC inh	53.8*	43.3*	-24.3	/
GIV Gai3 FP	97.0	109.3	/	-69.2*

(listing goes on)
19	O=C(Oc1ccc2cc(-c3nc4ccccc4s3)c(=O)oc2c1)c1ccco1
20	COc1ccc(Nc2nnc(-c3cc4c(ccc5ccccc54)oc3=O)s2)cc1
21	CCOc1ccc2cc(-c3nc4ccccc4s3)c(=O)oc2c1
22	O=c1oc2cc(O)ccc2cc1-c1nnc(NCc2ccccc2)s1
23	ClC1=NN(c2ccccc2)CC1
24	CCOC(=O)c1cc2c(cc1C(=O)OCC)[n+](CC)c(/C=C/C=C1N(CC)c3cc(Cl)c(Cl)cc3N1CC)n2CC
Compound	19	20	21	22	23	24
HCMV NEC inh	/	-24.7	-15.5	/	-6.4	/
GIV Gai3 FP	-41.9*	101.9	107.4	-32.0*	96.6	121.5

25	CC(=O)OCCCN1/C(=C\C=C\c2n(CCCOC(C)=O)c3cc(Cl)c(Cl)cc3[n+]2C)N(C)c2cc(Cl)c(Cl)cc21
26	O=C(CN(C(=O)c1ccc(Cl)nc1)c1ccc2c(c1)OCCO2)NCc1ccco1
27	CC(=O)Oc1ccc2cc(-c3nc(-c4ccc(Cl)c(Cl)c4)cs3)c(=O)oc2c1
28	CC(=O)Oc1ccc2cc(-c3nc(-c4cccs4)cs3)c(=O)oc2c1
29	O=c1oc2cc(O)ccc2cc1-c1nc(-c2ccc(Cl)c(Cl)c2)cs1
30	O=c1oc2cc(O)ccc2cc1-c1nc(-c2cccs2)cs1
Compound	25	26	27	28	29	30
HCMV NEC inh	/	-6.3	/	/	/	/
GIV Gai3 FP	59.7*	103.5	116.4	149.7	-69.2*	-31.6*

31	COc1ccc(S(=O)(=O)N2CCc3nc(NC(=O)C4CCCCC4)sc3C2)cc1
32	CCCN1CC(CSC)C[C@@H]2c3cccc4[nH]cc(c34)C[C@H]21 (some centres not stated)
33	CCN(CC)c1ccc(/C=C(/C#N)C(=O)NC(C)C)o1
34	CCN(CCC#N)c1ccc(/C=C(\C#N)C(=O)NC(C)C)c(C)c1
35	C=CCn1c(=O)c(C(=O)Nc2ccc(F)cc2F)c(O)c2ccccc21
36	Cc1csc2c(=O)sc(NC(=O)c3cccs3)nc12
Compound	31	32	33	34	35	36
HCMV NEC inh	/	50.4*	-161.5	-76.7	3.7	57.7*
GIV Gai3 FP	100.3	/	-102.1*	/	100.6	102.6

37	Cc1csc2c(=O)sc(NC(=O)c3ccco3)nc12
38	Cc1ccc(CNC(=O)c2cccn3c(=O)c4ccc(Cl)cc4nc23)o1
39	O=S(=O)(c1ccc(N=Cc2c(O)ccc3ccccc23)cc1)N1CCCCC1
40	O=S(=O)(/N=C/c1c(O)ccc2ccccc12)c1ccccc1
41	NS(=O)(=O)c1ccc(N=Cc2c(O)ccc3ccccc23)cc1
42	O=c1[nH]c(=O)n(-c2ccccc2)c(O)c1C=Nc1ccc(S(=O)(=O)N2CCCCC2)cc1
Compound	37	38	39	40	41	42
HCMV NEC inh	32.7	-34.1	76.1*	/	96.6*	-8.4
GIV Gai3 FP	103.2	109.2	/	98.5	/	106.3

43	O=S(=O)(/N=C1\C=C2N(CCO)CCOC2(O)c2ccccc21)c1ccc(F)cc1 (configuration not stated)
44	O=S(=O)(/N=C1\C=C2N(CCO)CCOC2(O)c2ccccc21)c1ccccc1 (configuration not stated)
45	Cc1cc(C)cc(N2C(=O)NC(=O)/C(=C\c3ccc(OC(C)C(=O)O)cc3)C2=O)c1 (configuration not stated)
46	CCOc1ccc(N2C(=O)NC(=O)/C(=C\c3ccc(Br)cc3)C2=O)cc1
47	CCc1ccc(N2C(=O)NC(=O)/C(=C\c3ccc(OC(C)C(=O)O)cc3)C2=O)cc1 (configuration not stated)
48	CC(Oc1ccc(/C=C2\C(=O)NC(=O)N(c3ccc4c(c3)OCO4)C2=O)cc1)C(=O)O (configuration not stated)
Compound	43	44	45	46	47	48
HCMV NEC inh	39.7*	/	88.3*	1.2	78.5*	-0.9
GIV Gai3 FP	95.6	95.5	113.3	109.7	99.8	104.3

49	CCOC(=O)c1c(C)n(C)c2c1cc(OC(=O)c1cccc(Cl)c1)c1ccccc12
50	O=C(O)c1cccc(C(=O)O)c1F
51	CCCCCNC(=O)N1CCC2(CC1)Nc1ccccc1N(CC1CC1)C2=O
52	CCN(CC)c1ccc(C=C2C(=O)c3ccccc3C2=O)c(O)c1
53	CCN(CC)c1ccc(/C=N/NC=O)c(O)c1
54	O=c1c(=O)n(-c2cccc(Cl)c2)ccn1Cc1cccc(C(F)(F)F)c1
Compound	49	50	51	52	53	54
HCMV NEC inh	-14.3	-6.2	-8.5	-57.5	-34.6	/
GIV Gai3 FP	102.1	100.4	/	-64.4*	/	97.8

55	N#CC1=C(N)SC(N)=C(C#N)C1c1cccs1
56	CC(C)c1ccc(C2C(C#N)=C(N)SC(N)=C2C#N)cc1
57	N#CC1=C(N)SC(N)=C(C#N)C1c1ccc(O)cc1
58	N#CC1=C(N)SC(N)=C(C#N)C1c1cccc(C(F)(F)F)c1
59	CC(=O)C1=C(C)OC(N)=C(C#N)C1c1cccs1 (configuration not stated)
60	CCOC(=O)C1=C(C)OC(N)=C(C#N)C1c1cccc(C(F)(F)F)c1 (configuration not stated)
Compound	55	56	57	58	59	60
HCMV NEC inh	-48.2	-24.6	-40.8	-49.8	/	/
GIV Gai3 FP	-53.9*	/	-73.7*	-82.9*	100.4	100.0

61	O=C(Nc1nc2ccccc2s1)c1cccn(OCc2ccccc2)c1=O
62	O=C(c1ccc2c(=O)n(Cc3ccc4c(c3)OCO4)c(=S)[nH]c2c1)N1CCN(C2CCCCC2)CC1
63	CC(C)(C)n1nc2c(c1N)CSC2
64	Cc1cc(N(C)C)nc(Nc2ccc(NC(=O)C(C)(C)C)cc2)n1
65	Oc1ccc2cc(-c3nc(-c4ccc(Br)cc4)cs3)c(=Nc3ccc(-c4ccccc4)cc3)oc2c1
66	CCOC(=O)c1ccc2c(c1)N(CCCS(=O)(=O)O)/C(=C/C=C/c1n(CCCS(=O)(=O)[O-])c3cc(C(=O)OCC)ccc3[n+]1CC)N2CC
67	CCOC(=O)c1ccc2c(c1)n(CCCS(=O)(=O)[O-])c(/C=C/C=C1\N(CC)c3cc(Cl)c(Cl)cc3N1CCOc1ccccc1)[n+]2CC
68	O=c1cc(N2CCN(S(=O)(=O)c3ccc(F)c(F)c3)CC2)nc2sc(-c3ccccc3)nn12
Compound	61	62	63	64	65	66	67	68
HCMV NEC inh	-10.5	/	-21.3	/	/	/	/	59.7*
GIV Gai3 FP	/	109.6	102.9	107.2	114.1	-62.4*	112.0	101.9
